Like-named read-outs stand apart in the source and are kept apart here.
Key:
rat intestinal sucrase [1] = target: T1, rat intestinal sucrase (Rattus norvegicus, UniProt P23739); assay: In vitro α-glucosidase inhibition assay, rat intestinal sucrase; type: biochemical; conditions: rat small intestinal brush border membrane vesicles; sucrose substrate; mean ± SD (n = 3); read-out: IC50 against sucrase
T1 construct: rat small intestinal brush border membrane vesicles were first prepared; from tissue; host or cells: rat small intestine, brush border membrane vesicles
Procedure: The testing method previously described was modified and used. Thus, rat small intestinal brush border membrane vesicles were first prepared, and its suspension in 0.1 M maleate buffer (pH = 6.0) was used as small intestinal α-glucosidases of maltase and sucrase. A test compound was dissolved in dimethylsulfoxide (DMSO), and the resulting solution was diluted with 0.1 M maleate buffer to prepare the test compound solution (concentration of DMSO: 10%). The substrate solution in maleate buffer ([…], 50 μL), a test compound solution (25 μL), and the enzyme solution (25 μL) were mixed and incubated at 37 °C for 30 min. After incubation, the solution was immediately heated by boiling water for 2 min to stop the reaction, and the solution was mixed with water (150 μL). Glucose concentration was determined by the glucose-oxidase method. […] The IC50 value was determined graphically by a plot of percent inhibition versus log of the test compound.

Sequences of proteins named here, by UniProt entry; tags and fusion partners are left off. A change or cut given only in a name is not applied to a line headed by its entry.
UniProt P23739: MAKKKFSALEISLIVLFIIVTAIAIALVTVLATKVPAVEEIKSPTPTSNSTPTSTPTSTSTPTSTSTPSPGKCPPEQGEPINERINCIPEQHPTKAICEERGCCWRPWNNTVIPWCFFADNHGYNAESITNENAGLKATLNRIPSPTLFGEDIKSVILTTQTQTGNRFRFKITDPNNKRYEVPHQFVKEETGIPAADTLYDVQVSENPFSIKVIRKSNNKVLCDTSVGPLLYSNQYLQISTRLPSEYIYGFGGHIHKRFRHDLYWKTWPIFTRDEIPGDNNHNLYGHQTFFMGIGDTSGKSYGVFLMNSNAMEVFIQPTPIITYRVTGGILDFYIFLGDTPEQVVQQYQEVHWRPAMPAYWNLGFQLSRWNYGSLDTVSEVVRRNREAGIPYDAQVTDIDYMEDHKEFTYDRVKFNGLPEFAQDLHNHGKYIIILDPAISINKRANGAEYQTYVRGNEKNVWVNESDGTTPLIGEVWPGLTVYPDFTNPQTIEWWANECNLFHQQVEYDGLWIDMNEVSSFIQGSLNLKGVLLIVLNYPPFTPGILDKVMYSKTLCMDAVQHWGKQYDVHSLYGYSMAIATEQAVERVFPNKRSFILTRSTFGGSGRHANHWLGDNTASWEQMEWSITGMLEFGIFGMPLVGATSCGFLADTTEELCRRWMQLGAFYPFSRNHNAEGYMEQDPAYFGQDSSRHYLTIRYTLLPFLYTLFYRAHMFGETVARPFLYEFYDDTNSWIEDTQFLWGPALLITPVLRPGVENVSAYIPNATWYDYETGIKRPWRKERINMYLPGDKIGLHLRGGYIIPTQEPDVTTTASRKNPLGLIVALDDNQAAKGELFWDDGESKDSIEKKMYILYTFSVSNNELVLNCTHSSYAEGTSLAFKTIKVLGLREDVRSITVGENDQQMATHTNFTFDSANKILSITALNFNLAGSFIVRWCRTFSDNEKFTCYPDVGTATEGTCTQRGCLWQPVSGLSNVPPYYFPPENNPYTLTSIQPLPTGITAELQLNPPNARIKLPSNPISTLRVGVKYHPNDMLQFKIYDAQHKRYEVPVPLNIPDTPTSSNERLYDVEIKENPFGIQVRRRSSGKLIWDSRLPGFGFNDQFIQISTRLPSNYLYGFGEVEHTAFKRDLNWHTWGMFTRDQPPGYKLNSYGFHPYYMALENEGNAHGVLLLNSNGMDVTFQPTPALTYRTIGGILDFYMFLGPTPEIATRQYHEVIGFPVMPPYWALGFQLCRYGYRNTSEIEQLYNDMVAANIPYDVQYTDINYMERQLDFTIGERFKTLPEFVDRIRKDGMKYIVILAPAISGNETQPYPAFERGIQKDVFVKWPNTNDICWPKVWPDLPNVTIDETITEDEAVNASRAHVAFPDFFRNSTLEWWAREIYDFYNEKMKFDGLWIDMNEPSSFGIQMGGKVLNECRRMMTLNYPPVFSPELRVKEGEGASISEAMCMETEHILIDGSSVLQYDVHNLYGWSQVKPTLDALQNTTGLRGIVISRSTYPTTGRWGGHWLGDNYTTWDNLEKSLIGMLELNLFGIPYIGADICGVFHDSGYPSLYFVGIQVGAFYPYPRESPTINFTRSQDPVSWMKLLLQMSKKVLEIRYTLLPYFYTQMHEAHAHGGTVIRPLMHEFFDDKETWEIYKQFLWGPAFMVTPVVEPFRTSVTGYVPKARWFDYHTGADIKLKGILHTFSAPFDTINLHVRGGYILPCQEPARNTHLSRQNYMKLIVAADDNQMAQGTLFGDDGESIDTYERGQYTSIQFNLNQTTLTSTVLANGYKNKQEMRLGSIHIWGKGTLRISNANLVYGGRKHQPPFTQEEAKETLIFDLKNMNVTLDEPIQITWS

rat intestinal sucrase [2] = target: T1, rat intestinal sucrase; conditions: literature value ^[a]; read-out: IC50 against sucrase; cited from earlier work
rat intestinal sucrase [3] = target: T1, rat intestinal sucrase; assay: Inhibition-kinetic study (Lineweaver–Burk), sucrase; type: biochemical; conditions: small intestinal α-glucosidase, read-out: Ki Sucrase (Km = 23.56 mM) (converted)
Procedure: In order to explore the inhibitory mechanism of the α-glucosidase by this family of compounds, enzyme kinetic assays were conducted on 20a, 20c, and 10, followed by a detailed kinetic analysis using the Lineweaver–Burk plots. (Figure 3) The small intestinal brush border membrane vesicles were incubated with varying concentrations of maltose (3.27 mg/mL) for maltase assays and sucrose (52.37 mg/mL) for sucrase assays.
For kinetic analyses of maltase and sucrase by compounds (20a, 20c, and 10), the enzyme and test samples (1.0 mg/mL for maltase and 0.2 mg/mL for sucrase) were incubated with increasing concentrations of maltose (2.5, 5, 10, 20, 50, 100 μM) and sucrose (5, 10, 20, 50, 100, 1000 μM) at 37 °C for 30 min. The tube was immediately immersed in boiling water for 2 min to stop the reaction, then cooled with water. The glucose concentration was determined by the glucose-oxidase method. […] The Lineweaver–Burk equation follows as: 1/V=Km/Vmax×[…]
Ki values for each inhibitor were determined by the equation: Ki=[I]×Km/[[…]−Km]

IC50 (rat intestinal sucrase [1]): 2200 nM | Ki (rat intestinal sucrase [3]): 1040 nM
Compound: C[C@H]1O[C@H](O[C@H]2[C@H](O)[C@@H](O)[C@@H](O[C@H]3[C@H](O)[C@@H](O)C(O)O[C@@H]3CO)O[C@@H]2CO)[C@H](O)[C@@H](O)[C@@H]1N[C@H]1C=C(CO)[C@@H](O)[C@H](O)[C@H]1O (stereo partly drawn) [acarbose]
IC50 (rat intestinal sucrase [2]): 2500 nM
